The list is not random: actives were taken first. Their share in the collection is about 3.7%.
p53 reactivator: restores transcriptional activity of mutant p53; H1299 p53-A138V BP100-luciferase reporter, luminescence, 24 h; Potency, µM (series often up to 92.2 µM), hits mostly activators; actives 0.063% (n = 320,000); AID 504706; further: nearly all actives have a fitted effect of over 45% in size
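p53-null H1299 cells stably carrying temperature-sensitive p53-A138V and a BP100-luciferase reporter were pinned with compounds (4-point, 1:5 series) and held 24 hrs at 37 deg C. Luminescence was read 10 min after detection reagent.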
miR-21 reporter: raises the signal of a miR-21 reporter | HeLa miR-21 FLuc reporter, luciferase, 48 h | Potency, µM (highest dose often 38.3 µM) | 340,000 tested, under 10 active | AID 2288; active = well fitted rising curve with a large enough effect; inconclusive = small, poorly fitted or top-dose-only effect; inactive = no such curve, though single readings can be large or run the other way;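 also: miR-21 action dims this reporter so a rising signal means less miR-21 action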
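Using DMEM plus 10% FBS, HeLa miR-21-FLuc cells are incubated with test compounds (final up to about 40uM) for 48 hours; firefly luciferase signal is then imaged following reagent-mediated lysis.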
ClpP mod: qHTS Assay for Activators of ClpP; actives 1.9% (n = 340,000); Potency, µM (highest dose often 57.5 µM); purified B. subtilis ClpP, FRET peptide cleavage, 20 min; active means well fitted falling curve with a large enough effect; inconclusive means small, poorly fitted or top-dose-only effect; inactive means no such curve, though single readings can be large or run the other way; further: the source files actives as falling curves though it sought activators and does not explain the sign; nearly all actives have a fitted effect of over 65% in size
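ClpP 10 microg/mL final, pH 8 Tris/KCl buffer with BSA, glycerol, Tween-20; compound pinned in; FRET-FV substrate; RT 20 min; Ex320/Em430; ΔFRET vs ADEP 5.8 microM, DMSO, no enzyme.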
A549 viability: counter-screen for Nrf2 inhibitors: cytotoxicity in A549 cells | A549 ARE-Fluc cells, CellTiter-Fluor viability, 18-24 h | Potency, µM (top dose mostly 46 µM), usual class: inhibitors | actives 0.16% (n = 390,000)
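A549 ARE-Fluc cells in 5% FBS OPTI-MEM, 5000 cells/well, rested 2 h then exposed to compounds in concentration-response for 18-24 h at 37 °C. Viability by CellTiter-Fluor fluorescence (Ex 405/Em 525) after 30 min; luciferase luminescence (BugLite, 15 min, RT) read afterwards.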
Nrf2 block: Nrf2 pathway inhibition; Potency, µM (series often up to 46 µM), actives largely listed as inhibitors; actives 2.1% (n = 360,000); A549 ARE-Fluc reporter, luciferase luminescence, 18-24 h; further: nearly all actives have a fitted effect of over 60% in size
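A549 ARE_Fluc cells (5000/well, 5% FBS OPTI-MEM) pre-incubated 2 h, then treated with compounds 18-24 h at 37C/5% CO2 in concentration-response. CellTiter-Fluor viability read first; BugLite luciferase luminescence after 15 min at room temperature gives Nrf2 activity.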
Nrf2 ARE act: activates Nrf2 signaling. AREc32 ARE-luciferase reporter (MCF7-derived line), luminescence, 24 h. Potency, µM (top dose mostly 46.1 µM), hits mostly activators. actives 0.31% (n = 410,000); further: nearly all actives have a fitted effect of over 65% in size
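ARE activation measured as luciferase luminescence (Steady-Glo, 30 min RT) in AREc32_Fluc cells after 24 hr compound exposure at 37 deg C, 5% CO2; cells seeded overnight at 1000/well in OPTI-MEM, 5% FBS.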
Each line names hits and unclear results; the compound was inactive in the other large screens. Unless noted, the call rests on the fitted dose curve; in most records, active means well fitted curve in the direction sought with a large enough effect; inconclusive means small, poorly fitted or top-dose-only effect, or another doubt; inactive means no such curve, though single readings can be large; an effect the other way counts as inactive or inconclusive.

COc1cccc(C2C(C#N)=C(NC(=O)NCc3ccccc3)Oc3ccc4ccccc4c32)c1 (stereo not given)	A549 viability inconclusive (no result: p53 reactivator, miR-21 reporter, ClpP mod, Nrf2 ARE act)
C=CCN1C(=O)c2ccc(C(=O)N(C)CC(=O)Nc3ccccc3Br)cc2C1=O	ClpP mod 22µM
O=C1/C(=C\c2cc(Cl)c(O)c(Cl)c2)SC(=S)N1Cc1ccccc1	Nrf2 block 18µM (no result: ClpP mod)
Cc1ccccc1CNC(=O)c1ccccc1N	ClpP mod 10µM
Nc1ccccc1C(=O)NCc1ccccc1	ClpP mod 28µM, Nrf2 block inconclusive
COc1ccccc1CNC(=O)c1ccccc1NS(C)(=O)=O	ClpP mod 28µM (no result: Nrf2 block)
COc1ccccc1CNC(=O)c1ccccc1N	ClpP mod 10µM (no result: Nrf2 block)
COc1ccccc1CNC(=O)c1ccc(NS(C)(=O)=O)cc1	none
COc1cccc(C2c3c(ncn(-c4ccc(Br)cc4)c3=N)Oc3ccc4ccccc4c32)c1 (stereo not given)	none (no result: p53 reactivator, miR-21 reporter, ClpP mod, Nrf2 ARE act)
O=C(NCc1ccccc1)c1nccnc1CO	ClpP mod 16µM
CCN(CC)CCCNC(=O)c1ccccc1C	none
CCN(CC)CCNC(=O)c1ccccc1N	ClpP mod 10µM
Cc1ccc(CCNC(=O)C2CCN(S(=O)(=O)c3ccc4c(ccn4C)c3)CC2)cc1	none (no result: p53 reactivator, Nrf2 block)
O=C(c1ccc(CSc2nc3ccncc3n2Cc2cccc(F)c2)cc1)N1CCCCC1	Nrf2 block 23µM (no result: p53 reactivator)
O=C(c1ccc(CSc2nc3ccncc3n2Cc2ccc(F)cc2)cc1)N1CCCCCC1	Nrf2 block 18µM (no result: p53 reactivator)
CCOC(=O)N1CCN(C(=O)c2ccc3nc(SCc4ccc(F)cc4)n(C)c3c2)CC1	Nrf2 block 16µM
CCOC(=O)c1ccc(NC(=O)Cn2nc(SC)c(S(=O)(=O)c3ccc(Cl)cc3)c2N)cc1	miR-21 reporter inconclusive, Nrf2 block inconclusive (no result: p53 reactivator)
CCSc1nn(CC(=O)Nc2ccc(C(=O)OC)cc2)c(N)c1S(=O)(=O)c1ccc(C)cc1	Nrf2 block 23µM (no result: p53 reactivator)
CSc1nn(CC(=O)Nc2cc(C)ccc2C)c(N)c1S(=O)(=O)c1ccccc1	Nrf2 block 21µM (no result: p53 reactivator)
Nc1ccc(S(=O)(=O)N2CCN(S(=O)(=O)c3c(F)cccc3F)CC2)cc1	none (no result: p53 reactivator, miR-21 reporter, ClpP mod, Nrf2 ARE act)
COc1cc2nc(N3CCCCC3)nc(NC(C)C)c2cc1OC	none (no result: p53 reactivator, miR-21 reporter, A549 viability, Nrf2 block, Nrf2 ARE act)
O=C(COC(=O)c1cccc2ccccc12)Nc1cccnc1Cl	ClpP mod 16µM
Cc1ccc(/C=C/C(=O)OCC(=O)NC(C)c2ccccc2)o1 (stereo not given)	none (no result: miR-21 reporter)
O=C(COC(=O)c1cccc2ccccc12)Nc1ncc(C(F)(F)F)cc1Cl	ClpP mod 35µM
Cc1ccc(/C=C/C(=O)OCC(=O)Nc2cccnc2Cl)o1	Nrf2 ARE act 2.8µM (no result: miR-21 reporter, ClpP mod)
CCOc1ccccc1C(=O)OCC(=O)Nc1ncc(C(F)(F)F)cc1Cl	none
O=S(=O)(NCCNc1nc(-c2ccco2)nc2ccccc12)c1ccccc1	none (no result: p53 reactivator, miR-21 reporter, ClpP mod, Nrf2 ARE act)
CCOc1ccccc1Nc1cc(C)c2cccc(C)c2n1	Nrf2 block inconclusive (no result: p53 reactivator, ClpP mod)
CCOc1nc(N=C(N)N)nc2c(C)cccc12	ClpP mod 16µM
CC(C)Oc1ccc(CNC(=O)c2ccc3c(c2)N(C)C(=O)C2CCCCN32)cc1 (stereo not given)	none (no result: p53 reactivator, Nrf2 block)
Cn1cc(CCCC(=O)NCc2ccccc2)c2ccccc21	none (no result: ClpP mod)
Cc1ccc(Cn2cc(CCC(=O)NCC(C)c3ccccc3)c3ccccc32)cc1 (stereo not given)	miR-21 reporter inconclusive, ClpP mod inconclusive, A549 viability inconclusive, Nrf2 block 18µM (no result: p53 reactivator)
CCn1cc(CCC(=O)NCc2ccc(C)cc2)c2ccccc21	ClpP mod inconclusive (no result: p53 reactivator)
Cc1ccc(CNC(=O)CCCc2cn(C)c3ccccc23)cc1	ClpP mod 28µM
CC(=O)Nc1ccc(Nc2ccc3cc(S(=O)(=O)N4CCCCC4)ccc3n2)cc1	Nrf2 block inconclusive (no result: p53 reactivator)
Cc1cc2[nH]c3c(=O)n(Cc4ccccc4F)ncc3c2s1	none (no result: p53 reactivator, miR-21 reporter, ClpP mod, Nrf2 ARE act)
CCn1nnnc1NCc1ccc(OCc2ccc(F)cc2Cl)c(OC)c1	Nrf2 block 21µM
